# This is a selection; strong and weak results do not stand in their true shares. Records with an inconclusive call do not appear. Active and inactive are the calls of the source. Calls follow the shape of the dose curve; as a rule, active = well fitted cell-killing curve with a large enough effect in the repeat runs; inconclusive = weak or mixed curves, or effect the other way; inactive = flat fitted curve, though single readings scatter.
# Assay: qHTS assay to identify small molecule antagonists of the androgen receptor (AR) signaling pathway using the MDA cell line - cell viability counter screen (AID 743041; also: nearly all actives have a fitted effect of over 45% in size)
# Conditions: MDA-kb2 viability, CellTiter-Fluor, 16 h, cells co-treated with R1881 androgen agonist; series mostly up to 70.3 µM; viability change, negative = cytotoxic: at the top concentration
# Excerpt: National Center for Advancing Translational Sciences [NCATS]
# NIH Chemical Genomics Center [NCGC]
# U.S. Environmental Protection Agency [EPA]
# National Institutes of Environmental Health Sciences [NIEHS]
# National Toxicology Program [NTP]
# U.S. Food and Drug Administration [FDA]
# Androgen receptor (AR), a nuclear hormone receptor, plays a critical role in AR-dependent prostate cancer and other androgen related diseases. Endocrine disrupting chemicals (EDCs) and their interactions with steroid hormone receptors like AR may cause disruption of normal endocrine function as well as interfere with metabolic homeostasis, reproduction, developmental and behavioral functions. To identify the compounds that inhibit AR signaling, MDA-kb2 AR-luc cell line (from ATCC, deposited by Wilson et al.) was used to screen the Tox21 10K compound library. MDA-kb2 AR-luc cell line is human breast carcinoma cell line that was stably transfected with a luciferase reporter gene under control of the MMTV promoter containing response elements for both androgen receptor (AR) and glucocorticoid receptor (GR). The cytotoxicity of the Tox21 compound library against the MDA-kb2 AR-luc cell line was tested in parallel by measuring the cell viability using CellTiter-Fluor assay (Promega, Madison, WI) in the same wells.
# Tox21 Assay Protocol Summary:
# MDA-kb2 AR-luc cells were dispensed at 3,000 cells/4 uL/well of culture medium into white wall/solid-bottom 1536-well plates using a Multidrop Combi (ThermoFisher Scientific, Waltham, MA) dispenser. After the assay plates were incubated at a 37C and 0% CO2 for 5 hr, 23 nL of compounds dissolved in DMSO, positive controls or DMSO only was transferred to the assay plate by a Pintool station (Kalypsys, San Diego, CA), followed by addition of 1 uL of agonist (R1881) in culture medium using a Bioraptr Flying Reagent Dispenser (FRD) workstation (Beckman Coulter, Indianapolis, IN, USA). The plates were incubated at a 37C and 0% CO2 for 16 h. After 15.5 h incubation, 1uL of CellTiter-Fluor reagent (Promega) was added using a Bioraptr FRD to each plate for measuring cytotoxicity. The fluorescence intensity was quantified on a ViewLux plate reader (PerkinElmer, Shelton, CT) following 30 min incubation at 37C and 0% CO2.
# % is scaled to controls: 0 for no effect and ±100 for the full control effect; potency is read from the fitted curve at half-maximal effect.
SMILES,"viability change, negative = cytotoxic",Potency
COP(=S)(Cl)OC,inactive: -2.04% [at 95 µM],–
O=[P+](Oc1ccccc1)Oc1ccccc1,inactive: -0.866%,–
NC(=O)Nc1ccc([As](=O)(O)O)cc1,–,inactive
CN(C(=O)Cc1ccccc1)[C@H]1CC[C@@]2(CCCO2)C[C@@H]1N1CCCC1,inactive: -3.95%,–
CCOP(=S)(CC)Sc1ccccc1 (stereo not given),inactive: 4.49%,–
O=[N+]([O-])c1ccc(S(=O)(=O)O)c([N+](=O)[O-])c1,inactive: -6.36% [at 95 µM],–
O=P(Cl)(Oc1ccccc1)Oc1ccccc1,inactive: 2.83%,–
CCCCO[P+](=O)OCCCC,–,inactive
O=[p+]1oc2ccccc2c2ccccc21 (stereo not given),inactive: 4.23%,–
CCOC(=O)Cl,inactive: 10.4%,–
CC(C)CCCCCCCOP(OCCCCCCCC(C)C)Oc1ccccc1,inactive: -1.04%,–
ClP(Cl)c1ccccc1,inactive: 1.9%,–
CCCCC(CC)CO[P+](=O)OCC(CC)CCCC (stereo not given),inactive: 1.74%,–
O=[As]c1ccccc1 (stereo not given),–,active: 1.72 µM
CN(N=O)C(=N)N[N+](=O)[O-],inactive: -1.16%,–
O=C(OC1CN2CCC1CC2)c1ccccc1 (stereo not given),inactive: -3.72%,–
CC(C)OP(=S)(OC(C)C)SCCNS(=O)(=O)c1ccccc1,inactive: -2.32%,–
CCNC(C)Cc1ccc2c(c1)OCO2 (stereo not given),inactive: 1.35% [at 95 µM],–
O=P(Cl)(Cl)c1ccccc1,inactive: -5.55%,–
CN(C(=O)Cc1cccc2occc12)[C@H]1CC[C@@]2(CCCO2)C[C@@H]1N1CCCC1,inactive: 0.216%,–

# Source: PubChem BioAssay (Tox21)
